Results on one compound are retold here after publication PMC9614474 (Plant Physiology, 2022).

Amino acid sequences for entries named in this document (tags omitted). Residues count along the entry.
UniProt G2X4U8, 19-145 limits assumed: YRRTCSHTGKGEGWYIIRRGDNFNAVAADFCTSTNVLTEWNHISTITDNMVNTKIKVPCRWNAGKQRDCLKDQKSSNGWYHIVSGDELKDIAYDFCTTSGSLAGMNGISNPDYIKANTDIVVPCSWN

The experiment has as its target Vd2LysM (Verticillium dahliae, UniProt G2X4U8).

Consider `CC(=O)N[C@H]1[C@H](O[C@H]2[C@H](O)[C@@H](NC(C)=O)[C@H](O[C@H]3[C@H](O)[C@@H](NC(C)=O)C(O)O[C@@H]3CO)O[C@@H]2CO)O[C@H](CO)[C@@H](O[C@@H]2O[C@H](CO)[C@@H](O[C@@H]3O[C@H](CO)[C@@H](O[C@@H]4O[C@H](CO)[C@@H](O)[C@H](O)[C@H]4NC(C)=O)[C@H](O)[C@H]3NC(C)=O)[C@H](O)[C@H]2NC(C)=O)[C@@H]1O` (stereo partly shown) [Chi6, hexaacetylchitohexaose], for which the “ligand-induced polymerization, centrifugation pellet with methylene blue” value is listed as “clear pellets were formed upon incubation of these proteins with chitin”.
